In experiment [1] the test system is A549 lung adenocarcinoma cells with ELM4-ALK fusion translocation. As to the kind of experiment: Tim4-IgG1 Fc staining for phosphatidylserine exposure after ALK inhibitor treatment. Format: cell-based. To be noted: 12 hours, increasing concentrations up to 5000 nM.
The subject of experiment [2] is HCC159 lung adenocarcinoma cells. The experiment in a line: Tim4-IgG1 Fc staining for phosphatidylserine exposure after EGFR inhibitor treatment. Format: cell-based. To be noted: 12 hours, increasing concentrations 50 nM and higher. From the text: HCC159 lung adenocarcinoma cells harbor an EGFR mutation and are sensitive to EGFR inhibition.

For `CCc1cc2c(cc1N1CCC(N3CCOCC3)CC1)C(C)(C)c1[nH]c3cc(C#N)ccc3c1C2=O` [Alectinib], the “surface staining with Tim4-IgG1 Fc fusion protein (phosphatidylserine exposure)” value in experiment [1] was “enhance surface staining with Tim4-IgG1 Fc fusion protein”.
On the same count and under the same terms, the entry for `C[C@@H](Oc1cc(-c2cnn(C3CCNCC3)c2)cnc1N)c1c(Cl)ccc(F)c1Cl` [Crizotinib] is “enhance surface staining with Tim4-IgG1 Fc fusion protein”.
Take `COc1cc2ncnc(Nc3ccc(F)c(Cl)c3)c2cc1OCCCN1CCOCC1` [Gefitinib]: the “surface staining with Tim4-IgG1 Fc fusion protein (phosphatidylserine exposure)” value in experiment [2] is given as “enhanced surface staining with Tim4-IgG1 Fc fusion protein”.

The values are drawn from US11708423B2, “Chimeric engulfment receptor molecules and methods of use” (CERO THERAPEUTICS, INC., priority 2017, dated 2023).
